Measurements: patent publication US8697372B2, “Method for determining the binding of a given compound to a membrane receptor” (CIS Bio International, priority 2009, dated 2014)

Protein sequences, listed by entry. Tags and fused reporters are not part of them. Residues count along the entry.
UniProt P14416, 1-414 isoform 2: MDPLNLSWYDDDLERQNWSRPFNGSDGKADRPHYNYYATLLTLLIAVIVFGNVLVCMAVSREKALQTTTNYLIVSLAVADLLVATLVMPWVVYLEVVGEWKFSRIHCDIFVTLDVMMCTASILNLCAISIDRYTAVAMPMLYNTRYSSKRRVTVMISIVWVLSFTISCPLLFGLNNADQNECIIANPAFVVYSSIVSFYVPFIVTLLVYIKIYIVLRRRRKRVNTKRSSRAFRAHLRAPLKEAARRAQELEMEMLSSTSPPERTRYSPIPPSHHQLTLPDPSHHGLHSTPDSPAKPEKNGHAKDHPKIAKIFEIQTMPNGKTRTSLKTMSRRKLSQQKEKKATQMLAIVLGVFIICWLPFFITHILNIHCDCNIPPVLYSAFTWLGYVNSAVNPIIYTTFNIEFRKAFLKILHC
UniProt P41143, whole entry partner: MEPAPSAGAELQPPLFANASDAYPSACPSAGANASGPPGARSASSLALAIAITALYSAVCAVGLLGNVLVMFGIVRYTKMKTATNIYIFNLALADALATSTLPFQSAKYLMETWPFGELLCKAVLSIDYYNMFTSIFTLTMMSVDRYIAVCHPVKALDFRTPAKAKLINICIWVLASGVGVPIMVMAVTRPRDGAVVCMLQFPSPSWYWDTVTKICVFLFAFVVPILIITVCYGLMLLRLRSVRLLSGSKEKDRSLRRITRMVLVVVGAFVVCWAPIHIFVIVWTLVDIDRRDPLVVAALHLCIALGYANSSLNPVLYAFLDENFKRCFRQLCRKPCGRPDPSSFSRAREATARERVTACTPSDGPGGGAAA

Target: Dopamine D2 receptor implicated in the heterodimer with Delta Opioid (Homo sapiens, UniProt P14416)
Conditions: 3 nM red antagonist of the dopamine D2 receptor, Delta opioid receptor labeled with SNAP-Lumi4Tb, HEK293T cells, FIG. 11

SMILES | Competition with the fluorescent reference ligand and binding to the heterodimers
CCCN(CCc1ccccc1)C1CCc2c(O)cccc2C1 (centres unmarked) [PPHT] | compete with the fluorescent reference ligand and bind to the heterodimers
CCN1CCC[C@H]1CNC(=O)c1cc(S(N)(=O)=O)ccc1OC [Sulpiride, (S)-(−)-Sulpiride] | compete with the fluorescent reference ligand and bind to the heterodimers
